Reference: patent US20200338203A1 (Bicycle, published 2020)

Protein sequences, listed by entry. Tags and fused reporters are not part of them. Residues count along the entry.
UniProt P29317, 24-537: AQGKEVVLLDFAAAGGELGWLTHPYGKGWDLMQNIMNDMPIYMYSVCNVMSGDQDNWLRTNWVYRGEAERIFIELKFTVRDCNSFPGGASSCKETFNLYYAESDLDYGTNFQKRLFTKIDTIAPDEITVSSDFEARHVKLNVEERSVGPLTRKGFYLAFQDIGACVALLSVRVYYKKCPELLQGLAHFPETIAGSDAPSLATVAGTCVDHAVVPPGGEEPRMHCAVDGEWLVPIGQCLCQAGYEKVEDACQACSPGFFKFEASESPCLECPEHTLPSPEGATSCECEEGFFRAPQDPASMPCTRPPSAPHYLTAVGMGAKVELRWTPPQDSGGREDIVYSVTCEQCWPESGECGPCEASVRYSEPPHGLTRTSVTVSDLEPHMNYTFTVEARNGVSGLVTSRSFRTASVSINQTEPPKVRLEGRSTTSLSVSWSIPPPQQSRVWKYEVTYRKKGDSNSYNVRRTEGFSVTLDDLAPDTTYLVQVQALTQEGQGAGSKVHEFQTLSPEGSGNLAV

What follows are binders tested against T1, Human EphA2 (Human, UniProt P29317 24-537) (assay: FP competition; competitor: fluorescent Compound 66).
T1 construct: extracellular domain; also called EphA2 (Ecto), Human
Method: (§1) Peptides without a fluorescent tag were tested in competition with a peptide with a fluorescent tag and a known Kd (Table 2). Peptides were diluted to an appropriate concentration in assay buffer as described in the direct binding assay with a maximum of 5% DMSO, then serially diluted 1 in 2. Five μL of diluted peptide was added to the plate followed by 10 μL of human or mouse EphA2 (Table 1) at a fixed concentration which was dependent on the fluorescent peptide used (Table 2), then 10 μL fluorescent peptide added. Measurements were conducted as for the direct binding assay, however the gain was determined prior to the first measurement.

| Ki [nM] | Binder |
| --- | --- |
| 71.6 | CMNDWLCALGWTC (N-terminal acetyl; three Cys cyclised on TBMB, bicyclic peptide) |
| 356 | CMNDWLCSAGWTC (N-terminal acetyl; three Cys cyclised on TBMB, bicyclic peptide) |
| 328 | CANDWLCSLGWTC (N-terminal acetyl; three Cys cyclised on TBMB, bicyclic peptide) |

What follows are binders tested against T2, Human EphA2 (Ecto) (Human, UniProt P29317 24-537) (assay: FP competition; competitor Compound 66).
T2 construct: extracellular domain
Method: as §1

| Ki [nM] | Binder |
| --- | --- |
| 168 | ACPWGPAWCPVNRNGCA (TBMB on the 3 Cys) [Compound 52] |
| 71.6 | CMNDWLCALGWTC (printed: Ac-CMNDWLCALGWTC; TBMB on the 3 Cys) |
| 356 | CMNDWLCSAGWTC (printed: Ac-CMNDWLCSAGWTC; TBMB on the 3 Cys) |
| 2.5 | ADVRTCPWGPFWCPVNRPGCA (TBMB on the 3 Cys) [Compound 60] |
| 328 | CANDWLCSLGWTC (printed: Ac-CANDWLCSLGWTC; TBMB on the 3 Cys) |

What follows are binders tested against T2, Human EphA2 (Ecto) (assay: FP competition; competitor Compound 18).
Method: as §1

| Ki [nM] | Binder |
| --- | --- |
| 12.6 | ADVRTCPWGPFWCPVNRPGCA (TBMB on the 3 Cys) [Compound 60] |
| 16.1 | ARDDPCPWGPFWCPVNRPGCA (TBMB on the 3 Cys) [Compound 62] |
